Measured values from patent US5053408A, “Hexitol derivatives having vasodilative activity” (Kyowa Hakko Kogyo Co., Ltd., priority 1989, dated 1991).

Test system: coronary vasospasm model (lysine-vasopressin)
Assay: Effects on coronary vasospasm model (lysine-vasopressin test), inhibition of ST-segment elevation
Assay type: in vivo, male Wistar rats
Conditions: lysine-vasopressin 0.3 I.U./kg iv, MED = minimum dose with depression rate of 20% or higher

## O=[N+]([O-])O[C@H]1CO[C@H]2[C@@H]1OC[C@H]2O[N+](=O)[O-]
i.p., 20 min before anesthetization
  Coronary vasoconstriction model MED i.p.: < 30 mg/kg
p.o., 30 min before anesthetization
  Coronary vasoconstriction model MED p.o.: < 30 mg/kg
